The test system of assay [1] is mPlum:T208C reporter plasmid. The assay is described as follows: O^6Methylguanine HCR with MNNG treated mPlum:T208C plasmid in TK6 cells. The note with it: TK6 (MGMT-deficient), 500,000 cells analyzed, 16 hours post-transfection.
Assay [2] concerns fluorescent reporter plasmid. The assay can be described thus: HCR fluorescence assay of reporter plasmid treated with MNNG. The note with it: plasmid treated 4 hours in 0.8 mM MNNG; 16 hours after transfection.

N-methyl-N′-nitro-N nitrosoguanidine: in assay [1], the plum positive cells entry was “only a few hundred plum positive”. Further, the “inhibition of transcription (reporter expression by flow cytometry)” value in assay [2] is listed as “inhibition of transcription is not detected”.

The values are drawn from patent US9938587B2 (priority 2011, dated 2018).
